# Ab-95 light chain CDR variants: yeast mating affinities

Target: peptide PDVDLGDISGINAS, taken from heptad repeat 2 (HR2) of SARS-CoV-2 spike.

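The starting antibody came from a phage panning campaign against this peptide. Variants in AAYL52 differ from the parent at up to three CDR positions; double and triple changes were sampled at random. The assay is AlphaSeq: two haploid yeast populations carry antibody and antigen on their surface. Mating (16 h, 30 °C) was followed by selection of diploids and sequencing of their barcodes. Scores were corrected for input abundance and mapped to Kd with protein pairs of known affinity run in the same pool. There are three technical replicates.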

Parent: Ab-95, a human scFv built as VH, a (GGGGS)3 linker, VL. Only the CDRs of the light chain vary.
VH: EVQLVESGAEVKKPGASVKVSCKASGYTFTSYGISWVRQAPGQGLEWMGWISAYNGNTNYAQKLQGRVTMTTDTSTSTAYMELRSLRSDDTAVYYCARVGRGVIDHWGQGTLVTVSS
VL: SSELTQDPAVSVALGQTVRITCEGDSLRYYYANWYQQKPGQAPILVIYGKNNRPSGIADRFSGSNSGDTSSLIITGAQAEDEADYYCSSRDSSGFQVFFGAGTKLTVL

Changes read parent residue, position, new residue, counted from the first residue of the VL shown. Affinities are written as log10 Kd with Kd in nM; a lower number is a better binder. An entry "ND" has no value in the source: the pair was not observed among the diploids in that replicate. This suggests poor binding but is not conclusive. Empty control strains, which show no peptide, gave a signal in 28% of pairings with library AAYL52; the median was 3.91 and 95% of these signals were weaker than 2.90. No background was subtracted. For each scFv, signals with the empty controls are counted beside the result, with their mean in brackets. For reference, the parent read 2.31 as the reference entry and 2.25 as a member of this library.

changes | log10 Kd, replicates | empty controls
E23R/R28Q/D91V | ND / 3.40 / 3.44 | 3 of 9 (3.53)
D25H/R28T/P54E | 2.33 / 2.81 / 2.80 | 2 of 9 (4.01)
L27A/Y31D/A32I | 2.25 / 1.79 / 1.81 | 3 of 9 (3.43)
N33T/N52R/V97K | 4.77 / ND / 3.86 | 2 of 9 (4.22)
Y29P/P54Y/S93R | 3.98 / 5.21 / 2.97 | 4 of 9 (3.51)
G24R/S89L/S93P | 4.64 / ND / ND | 2 of 9 (3.94)
L27T/Y29Q/F95S | ND / 3.14 / 4.20 | 2 of 9 (4.97)
G49R/S88R/F98V | 3.60 / ND / ND | 5 of 9 (4.07)
P54T/Q96E/V97C | 3.16 / 3.17 / 2.40 | 2 of 9 (4.06)
G24F/R53Q/F95Q | 3.88 / 2.95 / ND | 2 of 9 (3.66)
R28D/R53H/F95E | 3.35 / ND / ND | 2 of 9 (3.76)
D25P/R53N | 3.13 / 4.28 / 3.65 | 2 of 9 (3.65)
S26G/S93E/F95G | ND / ND / ND | 0 of 9
N51V/N52M/S55H | 3.03 / 4.46 / ND | 2 of 9 (4.41)
R28C/N33R | 5.42 / 5.58 / 4.01 | 4 of 9 (3.40)
G24N/K50T/R90H | ND / ND / ND | 2 of 9 (3.30)
Y29E/S93G/G94Y | 3.15 / ND / ND | 1 of 9 (4.30)
E23G/S26W/N51G | 4.28 / 3.56 / 3.17 | 3 of 9 (3.28)
D25W/A32Y/S93A | ND / ND / 3.09 | 4 of 9 (3.93)
N51W/S88C | 3.65 / ND / ND | 1 of 9 (4.48)
L27T/N33V | 2.12 / 2.01 / 1.96 | 4 of 9 (4.09)
N52H/F98C | ND / 3.58 / ND | 2 of 9 (4.40)
D25E/N33G/Q96E | 3.39 / 3.28 / 2.43 | 1 of 9 (4.51)
Y30E/S55G/R90L | 2.12 / 1.68 / 1.41 | 4 of 9 (3.80)
L27I/S55L/D91V | 4.69 / 3.21 / 2.76 | 3 of 9 (3.76)
D25N/K50A/N51K | 3.00 / 2.52 / 2.14 | 1 of 9 (3.61)
S55G/Q96N/V97T | ND / ND / ND | 3 of 9 (3.11)
R28F/S55M/S89R | 3.37 / 3.13 / 3.13 | 2 of 9 (4.42)
P54E/S88N/V97Q | ND / ND / ND | 0 of 9
D25W/R28T/S93T | 2.18 / 2.54 / 2.09 | 2 of 9 (4.01)
E23I/S93G/V97I | 3.94 / 3.28 / ND | 2 of 9 (3.69)
G24I/Y31S/R53Q | 3.98 / 4.28 / ND | 1 of 9 (5.16)

Again, the first 4 entries without any signal:

changes,"log10 Kd, replicates",empty controls
S26G/S93E/F95G,ND / ND / ND,0 of 9
G24N/K50T/R90H,ND / ND / ND,2 of 9 (3.30)
S55G/Q96N/V97T,ND / ND / ND,3 of 9 (3.11)
P54E/S88N/V97Q,ND / ND / ND,0 of 9

Values reported by Engelhart et al. 2022, doi:10.1038/s41597-022-01779-4 (FLAb copy).